# From US6632449B2, “Compositions and kits comprising a defined boron compound and methods of their preparation” (The Procter & Gamble Co., priority 2001, dated 2003)
# Details: saturated aqueous solution acidified with hydrochloric acid, auto titrator; pH at inflection point
substance,measurement,value
sodium borate,pKa of the boron compound,about 9.2
